Results on one substance are retold here after patent publication US8288365B2, “Phenazopyridine compounds” (Pinnacle Pharmaceuticals, Inc., priority 2008, dated 2012).

The nature of the data set: PAP pharmacokinetics in rats after oral Gly-PAP salt forms. The conditions noted are these: PAP in rat plasma, 2.5 mg/kg PAP base equivalent (2.8 for free base). In kind it is in vivo. The method, then:
The oral bioavailability of PAP (phenazopyridine) prodrugs was evaluated in healthy rats. All the PAP amide (amino acid derivatives) bases were dissolved in 0.1N HCl (the same result can be obtained with a lower molarity), while the carbamates were dissolved in PEG-400 due to the very poor aqueous solubility of the PAP-carbamates. In general, all of the amino acid amide derivatives of PAP had higher water solubility than those of the PAP-carbamates. In another PK study, PAP.HCL salt, Gly-PAP.HCl salt and Gly-PAP.mesylate salt were dissolved in water, affording a clear solution in each case prior to oral administration.
The rats were fasted overnight prior to dosing. Appropriate amount of each compound was administered via gastric gavages, and at predetermined time (1, 2, 4, 6, and 24 h) blood samples were withdrawn from the rats. The whole blood was centrifuged immediately, and supernatant (plasma) was collected. The plasma samples were assayed for PAP using LC-MS-MS.
The pharmacokinetics of various salts of Gly-PAP were compared following oral administration to rats. All salt forms improved the oral bioavailability of phenazopyridine as compared to biovailability from phenazopyridine HCl.

phenazopyridine hydrochloride [PAP•HCl]: the T1/2 was found to be 48 min.
